Only a part is listed here, and it is no random draw. Activity calls are given as the source filed them.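 The calls were made as follows: active = luminescence in either of two replicates above the same-plate mean plus 3 SD of the low-dose dopamine control; inactive = the rest.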
Biological target: D(1A) dopamine receptor (Homo sapiens) (UniProt P21728)
Experiment: potentiation of dopamine EC30 D1 response – cell-based, HEK293 D1, CRE-luciferase, duplicate, confirmation (AID 642)
Settings: at 10 µM, active compounds read high

Chains of the proteins cited; added tags and fusions are not shown.
UniProt P21728, whole entry: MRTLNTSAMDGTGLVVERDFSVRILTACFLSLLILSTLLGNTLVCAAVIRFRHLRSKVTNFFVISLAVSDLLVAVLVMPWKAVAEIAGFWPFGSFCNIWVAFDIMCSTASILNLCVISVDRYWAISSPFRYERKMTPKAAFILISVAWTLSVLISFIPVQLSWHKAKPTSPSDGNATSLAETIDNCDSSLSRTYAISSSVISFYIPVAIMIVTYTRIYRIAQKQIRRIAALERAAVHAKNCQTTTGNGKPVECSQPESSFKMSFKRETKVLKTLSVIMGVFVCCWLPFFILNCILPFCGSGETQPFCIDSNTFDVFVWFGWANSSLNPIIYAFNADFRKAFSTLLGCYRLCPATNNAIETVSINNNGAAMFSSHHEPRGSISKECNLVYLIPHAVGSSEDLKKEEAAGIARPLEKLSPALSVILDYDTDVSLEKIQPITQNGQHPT

SMILES	luminescence
Cc1nc2ccc3ccccc3c2s1.O=[N+]([O-])c1cc([N+](=O)[O-])c(O)c([N+](=O)[O-])c1	active: 7760

Source: PubChem BioAssay AID642 (Vanderbilt High Throughput Screening Facility, 2007)
